Binding of CDR-mutated scFvs to a peptide of the spike HR2 region

Source: Li et al. 2023 (doi:10.1038/s41467-023-39022-2), MIT Lincoln Laboratory and A-Alpha Bio; data file from the FLAb repository.

The target is the same throughout: PDVDLGDISGINAS, from the HR2 region of SARS-CoV-2 spike.

The variants keep the light chain, the linker and the frameworks of Ab-14 (scFv order VH, a (GGGGS)3 linker, VL).
VH: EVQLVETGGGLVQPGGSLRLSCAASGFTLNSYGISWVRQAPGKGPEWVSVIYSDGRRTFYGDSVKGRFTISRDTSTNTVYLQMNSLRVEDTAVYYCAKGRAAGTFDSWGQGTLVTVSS
VL: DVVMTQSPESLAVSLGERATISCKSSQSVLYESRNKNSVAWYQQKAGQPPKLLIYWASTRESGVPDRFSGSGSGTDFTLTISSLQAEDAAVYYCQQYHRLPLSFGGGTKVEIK

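Designed CDR sequences, proposed from the first random library and measured here. Group labels follow the data file (Ctrl: baseline library sampled from a position-specific scoring matrix, with some repeated check sequences; En: ensemble of fine-tuned language models; GP: Gaussian process model; GPLM: also part of the Gaussian process libraries; HC: hill climbing; Gen: genetic algorithm; Gibbs: Gibbs sampling; a sequence that several methods proposed may carry one label only). The assay is AlphaSeq: two haploid yeast populations carry antibody and antigen on their surface. Binding brings cells together so that they mate, and sequencing counts the barcode pairs among the diploids. The ratio of observed to expected reads was calibrated, replicate by replicate, on BCL2-family standards whose Kd was known from biolayer interferometry. Each pool was mated in six replicate cultures.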

Each variant is given by its three heavy chain CDRs, as the data file delimits them; those of the parent are GFTLNSYGIS, VIYSDGRRTFYGDSVK, GRAAGTFDS. The read-out is the apparent dissociation constant on a log10 scale (nM): the lower, the stronger. An entry "n.d." has no value in the source: the pair was not observed among the diploids in that replicate. This suggests poor binding but is not conclusive. Of ten entries with the parent sequence, four were seen in most replicates (averages 0.34 to 2.37), three in one and three in none, so single entries are noisy.

{"CDR-H1": "GFTLNEYGIS", "CDR-H2": "VIYSDGRRTFYGDSVK", "CDR-H3": "GQAAGTFDS", "group": "Ctrl+GPLM_Gen", "log10 Kd (nM) by replicate": "0.45 / 0.44 / 0.47 / 0.47 / 0.99 / 0.95; 0.14 / 0.34 / 1.22 / 1.47 / 1.48 / 0.60"}
{"CDR-H1": "GFTLNSYGIS", "CDR-H2": "VIYSDGRRAFYGDSVK", "CDR-H3": "GREAGTFDS", "group": "Ctrl", "log10 Kd (nM) by replicate": "n.d. / n.d. / n.d. / -0.63 / -1.44 / n.d."}
{"CDR-H1": "GFDLNEYGIS", "CDR-H2": "VIYADGKRTFYSDSVK", "CDR-H3": "GEIAGTFDS", "group": "En_HC", "log10 Kd (nM) by replicate": "-0.05 / -0.27 / -0.78 / -0.28 / -0.62 / -0.48"}
{"CDR-H1": "GFTLDSYGIS", "CDR-H2": "VIYADGRRTFYHDSVK", "CDR-H3": "GRAAGTFDS", "group": "GP_Gibbs", "log10 Kd (nM) by replicate": "0.25 / -0.13 / 0.00 / -0.21 / 0.53 / -0.17"}
{"CDR-H1": "GFTLNSYGIS", "CDR-H2": "VIYSDGRRTFYSDSVK", "CDR-H3": "GTDAGTFDS", "group": "GP_HC", "log10 Kd (nM) by replicate": "1.83 / 3.24 / 1.02 / 2.18 / 2.81 / 1.02"}
{"CDR-H1": "GFDLNEYGIS", "CDR-H2": "VIYADGMRTFYQDSVK", "CDR-H3": "GEIAGTFDQ", "group": "En_HC", "log10 Kd (nM) by replicate": "-0.12 / -0.22 / -0.27 / 0.06 / -0.22 / -0.07"}
{"CDR-H1": "GFDLNEYGIS", "CDR-H2": "VIYADGMRTAYADDVK", "CDR-H3": "GEVAGTFDV", "group": "En_Gen", "log10 Kd (nM) by replicate": "-0.31 / -0.46 / -0.28 / -0.68 / -0.40 / -0.24"}
{"CDR-H1": "GFWLNSYGIS", "CDR-H2": "VIYADGRRTFYGDSVK", "CDR-H3": "GDAAGTFDS", "group": "GP_HC", "log10 Kd (nM) by replicate": "n.d. / n.d. / n.d. / 0.44 / n.d. / n.d."}
{"CDR-H1": "GFVLNNYGIS", "CDR-H2": "VIYSDGRRTFYGDSVK", "CDR-H3": "GQAAGTFDS", "group": "GPLM_Gen", "log10 Kd (nM) by replicate": "1.67 / 4.05 / 0.53 / 0.68 / 0.71 / 1.66"}
{"CDR-H1": "GFSLDEYGIS", "CDR-H2": "VIYADGKRTFYADSVK", "CDR-H3": "GNSAGTFDS", "group": "En_HC", "log10 Kd (nM) by replicate": "0.58 / 0.04 / 0.46 / -0.21 / 0.33 / 0.03"}
{"CDR-H1": "GFDLNSYGIS", "CDR-H2": "VIYSDGRRTFYGDSVK", "CDR-H3": "GRWAGTFES", "group": "GP_HC", "log10 Kd (nM) by replicate": "n.d. / n.d. / n.d. / n.d. / 1.92 / n.d."}
{"CDR-H1": "GFDLNEYGIS", "CDR-H2": "VIYADGSRVAYANNVK", "CDR-H3": "GKNNAISSN", "group": "En_Gibbs", "log10 Kd (nM) by replicate": "n.d. / n.d. / n.d. / n.d. / n.d. / n.d."}
{"CDR-H1": "GFDLNEYGIS", "CDR-H2": "VIYADGLRTAYSDSVK", "CDR-H3": "GNVAGTFDV", "group": "En_Gen", "log10 Kd (nM) by replicate": "-0.84 / -0.81 / -0.68 / -0.99 / -0.92 / -0.62"}
{"CDR-H1": "GYDLNEYGIS", "CDR-H2": "VIYADGNRNAYANNFK", "CDR-H3": "GLHNGFFII", "group": "En_Gibbs", "log10 Kd (nM) by replicate": "n.d. / n.d. / n.d. / n.d. / n.d. / n.d."}
{"CDR-H1": "GFWLNSYGIS", "CDR-H2": "VIYSDGRRTFYIDSVK", "CDR-H3": "GNAAGTFDS", "group": "GPLM_Gibbs", "log10 Kd (nM) by replicate": "n.d. / 2.54 / n.d. / 2.42 / n.d. / 2.60"}
{"CDR-H1": "GFTLNSYGIS", "CDR-H2": "VIYSDGRRTSYSDSVK", "CDR-H3": "GTAAKTFDS", "group": "Ctrl", "log10 Kd (nM) by replicate": "n.d. / n.d. / n.d. / n.d. / n.d. / 2.93"}
{"CDR-H1": "GFDLDEYGIS", "CDR-H2": "VIYADGQRTFYADSVK", "CDR-H3": "GENAGTFDA", "group": "En_HC", "log10 Kd (nM) by replicate": "-0.19 / 0.14 / -0.17 / -0.23 / 0.27 / -0.10"}
{"CDR-H1": "GFDLNEYGIS", "CDR-H2": "VIYADGVRKSYADSVK", "CDR-H3": "GNNAGTFDV", "group": "En_Gen", "log10 Kd (nM) by replicate": "-0.55 / -0.48 / -0.62 / 0.03 / -0.55 / -0.23"}
{"CDR-H1": "GFTLNEYGIS", "CDR-H2": "VIYSDGRRTFYSDSVK", "CDR-H3": "GHAAGTFDD", "group": "GP_HC", "log10 Kd (nM) by replicate": "1.21 / 0.66 / 0.24 / 0.69 / 0.83 / 0.47"}
{"CDR-H1": "GFTRNSYGIS", "CDR-H2": "VIYSDGRRTFYGDSVK", "CDR-H3": "GEAAGTFDS", "group": "Ctrl", "log10 Kd (nM) by replicate": "n.d. / n.d. / n.d. / n.d. / n.d. / n.d."}
{"CDR-H1": "GFDLNEYGIS", "CDR-H2": "VIYADGRRTFYIDSVK", "CDR-H3": "GEAGGTFDT", "group": "En_HC", "log10 Kd (nM) by replicate": "-0.10 / -0.06 / -0.16 / 0.03 / -0.09 / 0.23"}
{"CDR-H1": "GFSLAEYGIS", "CDR-H2": "VIYADGSRTAYADAVK", "CDR-H3": "GYNGKIGDK", "group": "En_Gibbs", "log10 Kd (nM) by replicate": "n.d. / n.d. / n.d. / n.d. / n.d. / n.d."}
{"CDR-H1": "GFTLESYGIS", "CDR-H2": "VIYSDGRRTFYGDAVK", "CDR-H3": "GRTAGTFDS", "group": "GPLM_Gibbs", "log10 Kd (nM) by replicate": "0.11 / -0.12 / -0.65 / -0.05 / -0.08 / -0.06"}
{"CDR-H1": "GFQLDEYGIS", "CDR-H2": "VIYADGKRTFYADSVK", "CDR-H3": "GEAAGTFDI", "group": "En_HC", "log10 Kd (nM) by replicate": "-0.38 / -0.60 / -0.70 / -0.67 / -0.63 / -0.64"}
{"CDR-H1": "GFNLNSYGIS", "CDR-H2": "VIYSDGRRTFYIDSVK", "CDR-H3": "GRNAGTFDS", "group": "GP_Gen", "log10 Kd (nM) by replicate": "n.d. / 1.15 / 2.09 / 1.54 / 1.12 / 1.83"}

A sequence that the file lists under several names has all its replicates listed entry by entry, parted by semicolons. Three control strains display no target. For all heavy chain designs, 1% of the pairings with them gave a signal, with a median of 2.08 and one signal in twenty below 0.84, so weak values seen in few replicates may be background. A sequence measured in both rounds can read differently, since the two assays cover different ranges. In the paper, a design with two or fewer of six values counts as a poor binder.